Assay results reported in PMC4358366 (2014).

Biological target: H3K27Cr peptide (UniProt P68431, crotonyl-lysine at 27)
Experiment: ITC

B1: recombinant human Sirt3 (102–399) (enzyme)
chain: ISFSVGASSVVGSGGSSDKGKLSLQDVAELIRARACQRVVVMVGAGISTPSGIPDFRSPGSGLYSNLQQYDLPYPEAIFELPFFFHNPKPFFTLAKELYPGNYKPNVTHYFLRLLHDKGLLLRLYTQNIDGLERVSGIPASKLVEAHGTFASATCTVCQRPFPGEDIRADVMADRVPRCPVCTGVVKPDIVFFGEPLPQRFLLHVVDFPMADLLLILGTSLEVEPFASLTEAVRSSVPRLLINRDLVGPLAWHPRSRDVAQLGDVVHGVESLVELLGWTEEMRDLVQRETGKLDGPDK
  Kd: 157 µM
